According to ChEMBL document CHEMBL5252533, “Dual Kinase-Bromodomain Inhibitors in Anticancer Drug Discovery: A Structural and Pharmacological Perspective” (J Med Chem, 2016):

Molecular target: Bromodomain testis-specific protein (Homo sapiens, UniProt Q58F21)
Test: biochemical
Type: cell-based

In the case of `Oc1ccc(-c2nc(-c3ccncc3)c(-c3ccc(F)cc3)[nH]2)cc1` [SB-202190], the IC50 is reported as 2500 nM.
